Reference: publication PMC6154319, “Intestinal Transport Characteristics and Metabolism of C-Glucosyl Dihydrochalcone, Aspalathin” (Molecules : A Journal of Synthetic Chemistry and Natural …, 2017)

Test: Acute mouse study, metabolite identification in blood and urine by LC-MS/MS
Type: in vivo
Details: oral 50 mg/kg aspalathin, urine over 8 h, tentative identification by LC-MS/MS
Procedure: An acute mouse study was performed under ethical approval from the Ethics Committee for Research on Animals (ECRA) of the South African Medical Research Council (Ref:07/13). Three 8-week old male C57.BKS mice, obtained from the Primate Unit of the South African Medical Research Council (Tygerberg, South Africa), were housed individually in polycarbonate cages with wired lids and kept in a controlled environment of 23–24 °C, 50% humidity, and a 12 h light/dark cycle. Prior to the study, urine was collected from the fasting mice overnight in a metabolic cage. Baseline fasted blood was collected via tail snip into a heparin tube, snap frozen in liquid nitrogen, and stored at −80 °C. Each mouse received a single dose of synthetic aspalathin (50 mg/kg body weight) dissolved in phosphate-buffered saline (PBS) (5 mg/mL) via orogastric gavage. Blood samples were collected and handled as described for fasting at time 0 (pre-gavage), and 1, 2, 4, 6, and 8 h post-gavage. All the samples were collected into the same heparin tube and kept on ice during the experiment. Urine was collected over the 8-h post-gavage monitoring period and the samples were stored at −80 °C until analysis.
The frozen whole blood samples, as well as the samples incubated with microsomes and controls, were thawed, extracted by protein precipitation using 0.1% formic acid (FA) in acetonitrile, centrifuged and filtered through 0.22 µm polyvinylidene difluoride (PVDF) filters (Merck Millipore, Frankfurter Straße, Darmstadt, Germany). Frozen whole urine samples were thawed and diluted 5 times in 0.1% aqueous FA. Samples were analysed by LC-MS/MS on an Agilent 1200 Rapid Resolution HPLC system (600 bar, Agilent Technologies) coupled to a 4000 QTRAP® (AB Sciex, Framingham, MA, USA) equipped with a Turbo V™ […]. Filtered samples (10 μL), stored on a sample tray maintained at 8 °C, were injected on a Gemini C6-Phenyl column (150 × 2.0 mm, 3 µm particles) (Phenomenex, Santa Clara, CA, USA) at 40 °C. Metabolites were separated using gradient separation at 0.4 mL/min with 0.1% aqueous FA (A) and 0.1% FA in acetonitrile (B): 5% B, 0–1 min; 5%–50% B, 1–3 min; 50% B, 3–6 min; 50%–100% B, 6–7 min; 100% B, 7–10 min (equilibration at initial conditions for 5 min).
All mass scans were performed using electrospray ionisation in negative mode, with the following operating parameters: curtain gas, 30 psi; nebuliser gas, 50 psi; turbo gas, 60 psi; source temperature, 400 °C; ion spray voltage, −4.5 kV; declustering potential, −75 V; collision activated dissociation gas setting, high; scan speed, 4000 Da/s. […] Collision energy and spread were set at −35 V and 25 V, respectively. […]

Substance | metabolite present in mouse urine (relative concentrations)
Aspalathin-O-Gluc [Glu1] | mainly
Me-O-Aspalathin-O-Gluc [MeGlu1] | also present
Aspalathin-O-SO3H [S1] | mainly
Me-O-Aspalathin-O-SO3H [SMe1] | also present
